Assay results published in US20260216158A1, “OCULAR IMPLANT CONTAINING A TYROSINE KINASE INHIBITOR” (OCULAR THERAPEUTIX, INC., priority 2023, published 2026).

Conditions: 4 h

Fumaric Acid
Thermodynamic solubility in PBS, pH 7.4 at 37° C., 4 hours: 0.4 μg/mL
